## Measured affinities in a library of Ab-14 light chain variants

Source: Li et al. 2023 (doi:10.1038/s41467-023-39022-2), MIT Lincoln Laboratory and A-Alpha Bio; data file from the FLAb repository.

All variants were tested on one target, the spike HR2 peptide PDVDLGDISGINAS (SARS-CoV-2).

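The starting antibody came from a phage panning campaign against this peptide. These sequences belong to a second round, designed from the earlier measurements on random variants of the parent. Their group label is 14L_GP_HC (GP: Gaussian process model; HC: hill climbing; a sequence that several methods proposed may carry one label only). The scFvs were displayed on barcoded MATa yeast, the peptide on MATalpha yeast. Pairs that bind mate more often; barcode pairs of the diploids are counted by sequencing. A regression on co-assayed BCL2-family reference pairs converts the normalised counts of each replicate to an apparent Kd. The assay was run in six technical replicates.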

The variants keep the heavy chain, the linker and the frameworks of Ab-14 (scFv order VH, three GGGGS repeats, VL).
VH: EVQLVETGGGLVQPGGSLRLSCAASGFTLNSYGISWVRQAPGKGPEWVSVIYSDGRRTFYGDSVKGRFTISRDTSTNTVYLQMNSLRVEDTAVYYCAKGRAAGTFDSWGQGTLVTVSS
VL: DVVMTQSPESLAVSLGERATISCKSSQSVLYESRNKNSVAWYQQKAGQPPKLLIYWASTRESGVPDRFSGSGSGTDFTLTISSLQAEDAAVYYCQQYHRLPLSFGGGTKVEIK

Variants are written as CDR1, CDR2 and CDR3 of the light chain (limits as in the source). Parent: KSSQSVLYESRNKNSVA, WASTRES, QQYHRLPLS.
Scale: log10 of Kd in nM, estimated from mating counts; low values are strong binders.
A pair that was not seen in that replicate is written "nd"; this usually means weak binding, but a binder can also be missed.
A sequence measured in both rounds can read differently, since the two assays cover different ranges.
In the paper, a design with two or fewer of six values counts as a poor binder.
As a blank, each scFv also met three strains without target: over all light chain designs, 4% of these pairings were detected, typically at 2.64 and seldom below 1.59. Also given: how often the same scFv was detected with the empty control strains, with their mean in brackets.

CDR-L1,CDR-L2,CDR-L3,"log10 Kd, replicates",signal with controls
KSSISYLYESRNENSVA,EASTREK,QQYHRLPLS,1.14 / 0.70 / -0.06 / 0.41 / 0.53 / 0.45,0 of 18
KVEQSTLYESRNKNSVA,WASTRES,QQYHRLPLS,1.36 / 0.79 / 1.76 / 0.87 / 0.82 / 1.50,1 of 18 (0.99)
KSSQSYLYESRNENSVA,EASTREQ,QQYHRLPLS,0.43 / 0.39 / 0.27 / 0.30 / 0.24 / 0.29,1 of 18 (3.71)
KSSGSWLYESRNKNSVA,GASFRES,QQYHRLPLS,0.31 / 0.05 / 0.27 / 0.28 / 0.30 / 0.34,2 of 18 (2.00)
KSGQGVLYESRNANSVA,GASTRES,QQYHRLPLS,0.20 / -0.06 / 0.12 / 0.06 / 0.22 / 0.33,1 of 18 (1.78)
KHLQSVLYESRDKNSVA,HASTRED,QQYHRLPLS,0.36 / 0.32 / 0.15 / -0.06 / 0.39 / 0.24,2 of 18 (1.97)
KVYPSQLYESRNKNSVA,QASTRES,QQYHRLPLS,0.27 / -0.18 / -0.04 / -0.13 / -0.21 / -0.13,1 of 18 (2.78)
KSGYGVLYESRNKNSVA,GASTRES,QQYHRLPLS,0.18 / -0.09 / 0.08 / -0.09 / 0.14 / 0.09,4 of 18 (3.02)
KLSLSWLYESRNKNSVA,NASTRES,QQYHRLPLS,-0.07 / -0.29 / -0.44 / -0.29 / -0.36 / -0.24,2 of 18 (3.55)
KISQKVLYEHRTKNSVA,NASTRES,QQYHRLPLS,0.82 / 0.91 / 0.71 / 0.94 / 0.85 / 0.87,3 of 18 (2.77)
KSGQGVLYESRAKNSVA,GASTRES,QQYHRLPLS,0.55 / 0.41 / -0.02 / 0.07 / 0.25 / 0.39,2 of 18 (2.08)
KLQMSFLYESRNKNSVA,NASTRES,QQYHRLPLS,-0.14 / -0.11 / -0.27 / -0.23 / -0.32 / 0.10,0 of 18
KSAQGVLYESRNKNHVA,GASTRES,QQYHRLPLS,0.31 / 0.41 / 0.06 / -0.06 / 0.21 / 0.26,1 of 18 (2.49)
KLSQSVAMESRNANSVA,DASTRES,QQYHRLPLS,0.67 / 0.14 / 0.25 / -0.17 / 0.49 / 0.08,0 of 18
KSSFSYLEESRNKNSVA,EASTRES,QQYHRLPLS,0.21 / 0.34 / 0.09 / 0.22 / -0.14 / 0.27,0 of 18
IVSQSVLDESRNKNSVA,DASTRES,QQYHRLPLS,1.26 / 0.73 / 0.64 / 1.11 / 0.89 / 1.19,0 of 18
KFSQVQLYESRNKNSVA,GASTRES,QQYHRLPLS,-0.09 / -0.11 / -0.10 / -0.04 / -0.20 / 0.05,1 of 18 (2.66)
KLSQSWLYESRNKNSVA,GASTREN,QQYHRLPLS,0.58 / 0.32 / 0.10 / 0.30 / 0.10 / 0.31,1 of 18 (2.79)
KMSQSVLYEWRNKNSVA,DASTRES,QQYHRLPLS,-0.06 / -0.18 / -0.19 / -0.56 / -0.32 / 0.10,0 of 18
KLSQSFLYESRNFNSVA,GASTRES,QQYHRLPLS,0.02 / 0.00 / -0.12 / -0.31 / -0.13 / 0.10,3 of 18 (2.98)
KSSSSYLYESMNKNSVA,NGSTRES,QQYHRLPLS,0.24 / 0.16 / 0.21 / 0.27 / -0.01 / 0.19,0 of 18
KLSDSVLYESRNKNSVA,NASTRES,QQYHRLPLM,0.04 / 0.08 / -0.05 / -0.18 / -0.11 / 0.08,0 of 18
HSSPSVEYESRNKNSVA,NASCRES,QQYHRLPLS,0.72 / 0.70 / 0.22 / 0.55 / 0.20 / 0.59,1 of 18 (3.30)
KWSQSWLYEDRVKNSVA,GASTRES,QQYHRLPLS,0.14 / -0.48 / -0.43 / -0.46 / 0.08 / -0.14,1 of 18 (2.87)
KTQQGVLYESRNKNSVA,GASVRES,QQYHRLPLS,-0.20 / -0.19 / -0.15 / -0.50 / -0.40 / -0.15,0 of 18
KTSQSVLFEPRNKNSVA,DASTRES,QQYHRLPLS,0.54 / 0.43 / 0.37 / 0.28 / 0.34 / 0.66,6 of 18 (2.85)
KVQQSQEYESRNKNSVA,HASTRED,QQYHRLPLS,0.01 / -0.07 / -0.01 / -0.21 / -0.38 / 0.11,2 of 18 (2.53)
KSSQSVLYESANKNSVA,EASQRES,QQYHRLPLS,1.36 / 0.70 / 0.97 / 0.51 / 0.96 / 0.74,0 of 18
KSSQSWLYESRNKNSVA,GASRREV,QQYHRLPLS,-0.21 / -0.11 / 1.59 / -0.19 / -0.26 / -0.20,0 of 18
QSSQSHLYESRNKNSVA,GASTRES,QQYHRLPLS,-0.12 / -0.11 / -0.29 / -0.32 / -0.25 / 0.08,1 of 18 (2.30)
KHSQSFLYESRNKNSVA,GASTRES,QQYHRLPLS,-0.05 / 0.12 / -0.17 / -0.09 / -0.16 / -0.12,0 of 18
KSSWSWLYESRNKNSVA,GASSRES,QQYHRLPLS,nd / nd / 0.79 / 1.15 / 1.02 / 1.12,0 of 18
KCSLSVLFESRNKNSVA,NASTRES,QQYHRLPLS,0.43 / 0.25 / 0.19 / 0.15 / -0.01 / 0.26,0 of 18

Picked from the list: the 2 lowest averages where every replicate gave a value.

CDR-L1,CDR-L2,CDR-L3,"log10 Kd, replicates",signal with controls
KLSLSWLYESRNKNSVA,NASTRES,QQYHRLPLS,-0.07 / -0.29 / -0.44 / -0.29 / -0.36 / -0.24,2 of 18 (3.55)
KTQQGVLYESRNKNSVA,GASVRES,QQYHRLPLS,-0.20 / -0.19 / -0.15 / -0.50 / -0.40 / -0.15,0 of 18